In US20230088127A1, “ISOTOPES OF ALPHA KET[…] RELATED COMPOUNDS AND THEIR USE IN HYPE[…]” (priority 2020, published 2023):

Legend:
[1] = Hypersense DNP polarizer, 3.35 T, 1.45-1.5 K; data not shown
HCT116 IDH1 R132H cells = settings: for cell permeability: HCT116 R132H cells, FIG. 5
[2] = PAMPA, dodecane membrane with 2% lectin, 24 hours at 37° C., FIG. 7A
lactate dehydrogenase = settings: purified lactate dehydrogenase, Hypersense/preclinical 3T MRI, FIG. 3

Molecule	time required to polarize fully [1]	cell permeability (HCT116 IDH1 R132H cells)	increase in permeability over dimethyl-α-KG (DM-α-KG) [2] [fold]	increase in permeability over α-KG [2] [fold]	detection of [1-13C]-2-HG produced in IDH1 mutant cells (HCT116 IDH1 R132H cells; hyperpolarized probe added directly before HP-13C-MRI, FIG. 4)	detection of [1-13C]-2-HG formed by LDH enzymes (lactate dehydrogenase)
CCOC(=O)CCC(=O)C(=O)OCC [DE-[1-^13C]-α-KG, Diethyl 2-oxopentanedioate-5-^12C-1-^13C]	two	better permeability	~5	90	–	–
O=C(CC[12C](=O)O)[13C](=O)O [[1-^13C-5-^12C]-α-KG, 2—Oxopentanedioic-5-^12C-1-^13C acid]	five	–	–	–	detected cleanly	allows for detection of [1-^13C]-2-HG
alpha-ketoglutarate [α-KG, reference compound]	–	low	–	–	–	–
